Consider one molecule from patent US20090054489A1.

Protein sequences, listed by entry. Tags and fused reporters are not part of them.
UniProt Q01959, whole entry: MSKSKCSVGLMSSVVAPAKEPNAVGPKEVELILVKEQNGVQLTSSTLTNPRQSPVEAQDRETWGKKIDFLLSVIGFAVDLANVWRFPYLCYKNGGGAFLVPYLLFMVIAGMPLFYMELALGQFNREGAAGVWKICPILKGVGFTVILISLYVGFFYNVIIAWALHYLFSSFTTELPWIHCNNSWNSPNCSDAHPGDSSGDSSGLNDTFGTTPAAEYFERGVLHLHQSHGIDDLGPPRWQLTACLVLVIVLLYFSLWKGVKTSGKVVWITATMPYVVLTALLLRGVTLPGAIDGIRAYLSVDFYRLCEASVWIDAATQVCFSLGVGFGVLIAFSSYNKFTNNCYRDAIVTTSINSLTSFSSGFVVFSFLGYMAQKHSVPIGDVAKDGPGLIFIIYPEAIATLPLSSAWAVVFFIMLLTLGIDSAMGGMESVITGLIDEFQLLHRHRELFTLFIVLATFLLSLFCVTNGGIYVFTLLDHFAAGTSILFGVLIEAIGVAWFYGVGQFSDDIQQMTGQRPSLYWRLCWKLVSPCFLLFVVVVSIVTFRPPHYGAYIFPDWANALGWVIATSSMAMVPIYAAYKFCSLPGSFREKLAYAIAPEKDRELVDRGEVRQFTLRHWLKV

Structures are written as SMILES.

The target in one experiment is DAT (SLC6A3) (Homo sapiens, UniProt Q01959). In words: uptake assay for measuring IC50 of DAT. Conditions: read-out: IC50 against DAT (SLC6A3); cells expressing DAT, tritiated amine uptake. The method, then:
(§1) In vitro inhibitory profiles of two illustrative DAT-5HT2 antagonists, CNS-30,100 and CNS-31,100, were determined by measuring their respective IC50 using standard assays.
In a typical uptake assay for measuring IC50 of DAT, the assay is performed at room temperature in Krebs-Ringer's-HEPES (KRH) buffer (125 mM NaCl, 4.8 mM KCl, 1.2 mM MgSO4, 1.2 mM KH2PO4, 1.3 mM CaCl2, and 25 mM HEPES, pH 7.4), supplemented with 0.1% D-glucose, 1 mM ascorbic acid, 1 mM tropolone [catechol-O-methyltransferase (EC 2.1.1.6)-inhibitor] and 10 μM pargyline (monoamine oxidase-B inhibitor). Before the assay, cells expressing DAT are washed once with KRH and equilibrated for 5 min. The cells may be assayed in 24-well plates and incubated for 2-5 min with tritiated amines. Nontransported inhibitors were preincubated for 5 min, and substrates were applied together with the tritiated substrate. The uptake assay is terminated with two washes of ice-cold KRH, and the accumulated radioactivity is recovered by lysing the cells in 0.2% SDS and 0.1 N NaOH and counting on a Liquid Scintillation Analyzer 1900 TR (Packard, Meriden, Conn.). Nonspecific uptake can be determined in the presence of 10 μM GBR12909 (for hDAT). […]
Vmax values for amine uptake in stable transfected DAT-cells are determined in parallel assays for at least two amines per experiment and expressed as relative values.

The next experiment concerns 5-HT-2A/2C receptors. In words: IC50 for 5-HT-2A/C receptors, standard uptake assay using labeled 5-HT. Conditions: read-out: IC50 for 5-HT-2A/2C receptors; [3H]5HT. As for the experimental part: as §1
Similarly, IC50 for 5-HT-2A/C receptors can be measured using a standard uptake assay using labeled 5-HT. See Rudolph et al., J. Pharmacol. Exp. Ther. 287(1): 389-94, 1998. Briefly, the time course of the 5HT uptake can be determined by incubating each cell/tissue with the receptor at different periods in containers containing 2 ml of RBS without Ca++ at 30° C. in which [^3H]5HT (38 nM) is added. For estimating the kinetic parameters of 5HT uptake, several concentrations of [^3H]5HT may be used, ranging, for example, from 25 to 240 nM, using a 30-min incubation period. Corresponding incubations were conducted in a Na+-free medium to correct for nonspecific uptake. Radioactivity not incorporated by the tissue/cell is washed off by further incubation for 10 min in 100 ml of RBS. The tissue/cell is homogenized in 2 ml of 10% perchloric acid at the end of the incubation. The resulting suspension is centrifuged at 600×g for 5 min and 0.1 ml of the supernatant is analyzed for radioactivity.

`Cc1nc(CNC2CCN(CC3(c4ccc(Cl)cc4)CCC3)CC2COc2ccc(C(F)(F)F)cc2)c(N)[nH]1` (centres unmarked): the figures for the IC50 on DAT (SLC6A3) and with 5-HT-2A/2C receptors were 75 nM and 25 to 75 nM, respectively.
